The source of these data is patent publication US10703723B2, “Prodrugs of sulfasalazine, pharmaceutical compositions thereof and their use in the treatment of autoimmune disease” (Truly Translational Sweden AB, priority 2017, dated 2020).

For data set [1] the following is noted: male, Wistar (Hannover), rat, in vivo, po, 40 mg/kg. Here is the method:
In accordance with Swedish legislations for preclinical in vivo studies in rodents and following evaluation and approval of the experimental procedures the local ethical committee (M388-12), following acclimatization to the housing conditions for a minimum of 7 days after arrival, male Wistar (Hannover) rats (Taconic, Denmark), average weight 300 g; average age 8-10 weeks, were treated with test items (see table 1); 12-16 h prior to dosing all food except for an amount equivalent to a half day consumption was removed. […] The rats were conscious during sample collection and the blood was taken from the sub-lingual vein. Blood samples were collected from each rat over a period of up to 24 h. […] The body weight of the rat was recorded before dosing. The weight of the syringe was recorded before and after administration to allow calculation of the actual amount of test sample delivered. […]
Samples and standards were injected by a HTC PAL from CTC analytics into an LC system from Shimadzu consisting of a high pressure gradient system of two LC-10 AD pumps controlled by a SCL-10A controller from Shimadzu. […] The eluent was analyzed by a Quattro Ultima from Micromass equipped with an electrospray ion source. Data was collected and calibrations were calculated by MassLynx 4.0 software. […] The eluent was ionized by negative ion electrospray and the mrm transition from 397 to 197 m/z was monitored. […]

The nature of data set [2]: appearance of test formulations / solubility over time in PBC buffer (pH 7.4). The data set is classed as physicochemical. As to conditions: 0.5% CMC in phosphate buffer (pH 7.4).
The conditions of data set [3]: cited from earlier work.
Setting [4] is: RA patients with slow acetylation rate, 2 g/d sulfasalazine.

Structures are written as SMILES. Read-outs that look alike come from different tables or passages of the source.

With `O=C(O)c1cc(/N=N/c2ccc(S(=O)(=O)Nc3ccccn3)cc2)ccc1O` [Sulfasalazine, 2-hydroxy-5-[2-[4-[(2-pyridinylamino)sulfonyl]phenyl]diazenyl]-benzoic acid], in data set [1], the “Ratio SP to SSZ for AUC0-4 h (h*nmol/L)” value is recorded as 14:1 and the “Ratio SP to SSZ for Cmax (nmol/L)” value is reported as 20:1. The “Appearance of test formulations t = 0 h” value in data set [2] (t = 0 h) is recorded as “suspension”. In addition, in data set [2] (t = 4 h), the “Appearance of test formulations t = 4 h” value is on record as “suspension”. In data set [3] (setting [4]), the “ratio of AUC0→∞ of SP vs SSZ” value was 5.5 and the “ratio of blood plasma steady state concentration (CSS) of SP vs SSZ” value is reported as 6. In addition, in data set [3] (healthy volunteer study, 63° slow acetylators), the “ratio of AUC0→∞ of SP vs SSZ” value is on record as 4.
